SMILES strings stand for the structures. pIC50: −log10 of the molar value.

The target in the assay is Aldo-keto reductase family 1 member B1 (Rattus norvegicus, UniProt P07943). Kind of assay: Inhibitory concentration to aldose reductase (ALR-2) obtained from rat lens.

The pIC50 is −log10 of the IC50, conventionally taken in molar units. Read a low pIC50 as a high IC50. In the case of `O=C1NC(=O)[C@@]2(CCOc3ccc(F)cc32)N1` [SORBINIL], the pIC50 was 6.19.

The values above are taken from ChEMBL document CHEMBL1134301, “[1,2,4]Triazino[4,3-a]benzimidazole acetic acid derivatives: a new class of selective aldose reductase inhibitors” (J Med Chem, 2001).
